From patent US20180271891A1, “SELECTIVE TREATMENT OF PRMT5 DEPENDENT CANCER” (THE BROAD INSTITUTE INC., priority 2015, published 2018) come the findings set out here.

Each structure is given as a SMILES string.

Data set [1] deals with PRMT5 product sDMA. As to the kind of experiment: Western blot of sDMA after PRMT5i. The conditions noted are these: low nM doses; 4 days; BFTC909 and NCIH2030 cells. A general note: In western blotting, separated proteins are transferred to a membrane and probed.
Data set [2] deals with other histone methyltransferases. As to the kind of experiment: PRMT5i against other histone methyltransferases (data not shown). It counts as biochemical. To be noted: at up to 50 μM.
For data set [3], the system named is type-1 PRMT (PRMT1, 3, 4, 6, 8) product aDMA. The data set is described as follows: Western blot of aDMA after PRMT5i. The conditions noted are these: even at 2.5 μM; 4 days.
Data set [4] can be described thus: PRMT5i stability in media (LCMS). To be noted: tumor cell media, 37° C., 0 and 72 hours.

In the case of `O=C(NC[C@H](O)CN1CCc2ccccc2C1)c1cc(NC2COC2)ncn1` [EPZ015666], the sDMA entry in data set [1] is on record as “marked reduction”. In addition, in data set [2], the “inhibition of other histone methyltransferases” value is “without inhibition”. Further, in data set [3], the aDMA production result was “no effect”. The “stability in tissue culture media” value in data set [4] is “stable over several days”.
